Only a part is listed here, and it is no random draw. Calls of active or inactive are those of the source. Rule as the data show it: active = fluorescence intensity above about 16000; inconclusive = no clear call, values can overlap the other calls; inactive = below that.

This test in a line: compound fluorescence in toxin protease inhibitor counterscreen, primary screen, artefact control for toxin protease inhibitor project, biochemical, multiplex microsphere, HTS (AID 624483). Also: test concentration not given here. To be noted: compound autofluorescence counterscreen, microsphere flow cytometry; hits give high values. Background: Counterscreens check selectivity or assay interference.
For the compound `CCC(=O)N(c1ccccc1)C1(COC)CCN(CCc2cccs2)CC1`, the fluorescence intensity was inactive: 4720.

Regarding `CCC(=O)N(c1ccccc1)C1(COC)CCN(CCn2nnn(CC)c2=O)CC1`, the fluorescence intensity is inactive: 5360.

The values are drawn from PubChem BioAssay AID624483 (NMMLSC, 2012).
